# Experiments:
# [1] = system: H292-HGF human lung cancer xenograft; assay: Efficacy of bispecific molecule and other inhibitors in H292-HGF xenograft model (tumor volume, T/C, T-C); format: in vivo, SCID/Beige mice
# [2] = Body weight loss / tolerability in H292-HGF xenograft study; conditions: treatment and 2 weeks observation
substance,measurement,setting,value
Cetuximab: anti-EGFR antibody,antitumor activity,[1]; H292-HGF xenograft,significant antitumor activities
same,"tumor growth delay at tumor size of 1,000 mm^3 compared with the vehicle group","[1]; mouse, in vivo",17 days
same,toxicity / body weight loss / tolerability,[2],well tolerated

# — patent publication US10662235B2, “Cysteine engineered fibronectin type III domain binding molecules” (Janssen Biotech, Inc., priority 2016, dated 2020)
